Data from PubChem BioAssay (NCI).
The entries are a selection whose mix differs from that of the whole data set. Some structures show a salt or complex split into parts, the way the source records it. Calls of active or inactive are those of the source. Rule as the data show it: active = growth inhibition above about 70%; inactive = the rest.

Legend:
[1] = NCI Yeast Anticancer Drug Screen. Data for the rad50 strain (AID 155);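 also: 0% = growth of vehicle-only cultures of the same strain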; settings: S. cerevisiae rad50 strain growth inhibition; at 50.0 µM; hits give high values
[2] = NCI Yeast Anticancer Drug Screen. Data for the mec2-1 strain (AID 157); settings: S. cerevisiae mec2-1 strain, at 50.0 µM, hits give high values
[3] = NCI Yeast Anticancer Drug Screen. Data for the sgs1 mgt1 strain (AID 161);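 also: 0% = growth of cultures given vehicle only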; settings: S. cerevisiae sgs1 mgt1 strain, at 50.0 µM, hits give high values
[4] = NCI Yeast Anticancer Drug Screen. Data for the cln2 rad14 strain (AID 165);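 also: 0% = growth equal to vehicle treated cultures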; settings: S. cerevisiae cln2 rad14 strain, at 50.0 µM, hits give high values
[5] = NCI Yeast Anticancer Drug Screen. Data for the bub3 strain (AID 167); settings: S. cerevisiae bub3 mutant strain, at 50.0 µM, hits give high values
[6] = NCI Yeast Anticancer Drug Screen. Data for the mlh1 rad18 strain (AID 175); settings: S. cerevisiae mlh1 rad18 strain growth inhibition; at 50.0 µM; hits give high values

Measured: growth inhibition

C1=CN2OC3CCCCC3C2=CO1.O=[N+]([O-])c1cc([N+](=O)[O-])c(O)c([N+](=O)[O-])c1
inactive: [1] -8.85% | [2] 8.3% | [3] -7.1% | [4] -16.9% | [5] 20.9% | [6] -3.4%

O=[N+]([O-])N1C2OC3OC2N([N+](=O)[O-])C2OC3OC21
inactive: [1] -19.9% | [2] -7.9% | [3] -6% | [4] 6.9% | [5] -11.8% | [6] -11.6%

CC(C)OP(C)(=O)O.[V]
inactive: [1] 2.95% | [2] 0.6% | [3] 2.25% | [4] -24.9% | [5] -20.1% | [6] 9.35%

Cc1cccc2ccc3cccc(C)c3c12
inactive: [1] 14.9% | [2] 4.5% | [3] 21.7% | [4] -8.75% | [5] 8.25% | [6] 31.4%

O=C1CC(CC([N+](=O)[O-])([N+](=O)[O-])[N+](=O)[O-])C(=O)O1 (configuration not stated)
inactive: [1] 4.4% | [2] 4.9% | [3] 1.05% | [4] 0.95% | [5] 3.45% | [6] 5.05%

C=C1C(=O)C2CCN1CC2.O=[N+]([O-])c1cc([N+](=O)[O-])c(O)c([N+](=O)[O-])c1
inactive: [1] 23.2% | [2] 24.3% | [3] 27.5% | [4] 23.8% | [5] 17.2% | [6] 50.8%

CN([PH+](F)F)[PH+](F)F.CN([PH+](F)F)[PH+](F)F.CN([PH+](F)F)[PH+](F)F.CO[PH+](OC)OC.CO[PH+](OC)OC.[Ni].[Ni]
inactive: [1] 4.7% | [2] -9.9% | [3] -7.9% | [4] 0.75% | [5] 16.1% | [6] 3.2%

CCN(CC)CCOC(=O)C(O)(c1cccc(C)c1)C1CCCCC1 (configuration not stated)
inactive: [1] 28.1% | [2] 5.65% | [3] 19.3% | [4] -9.95% | [5] -14.9% | [6] 17.4%

O=[N+]([O-])C12C3C4C1C1CC4C4([N+](=O)[O-])C3CC2C14[N+](=O)[O-] (configuration not stated)
inactive: [1] -24.7% | [2] -18.6% | [3] -16.1% | [4] 5.05% | [5] -21.3% | [6] -22.1%

CC(C)CC(C)NCC(C)O.O=[N+]([O-])c1cc([N+](=O)[O-])c(O)c([N+](=O)[O-])c1
inactive: [1] 47.3% | [2] 17.7% | [3] 38.1% | [4] -0.25% | [5] -1.15% | [6] 19.6%

CC1=CC(C)(C)N=C(N)N1.O=[N+]([O-])c1cc([N+](=O)[O-])c(O)c([N+](=O)[O-])c1
inactive: [1] 1.2% | [2] -4.65% | [3] -4.1% | [4] -2.1% | [5] 7.1% | [6] 16.1%

CCCCC(c1ccccc1)(C(C)C)N(C)C.O=[N+]([O-])c1cc([N+](=O)[O-])c(O)c([N+](=O)[O-])c1 (configuration not stated)
inactive: [1] 35.1% | [2] 13.7% | [3] 24.4% | [4] 22.6% | [5] 3.2% | [6] 27.9%

O=[N+]([O-])C(CO)(CO)[N+](=O)[O-]
inactive: [1] 25.5% | [2] -10.4% | [3] 28.9% | [4] -29.8% | [5] -7.2% | [6] 20.4%

CN(CN(CN(CCl)[N+](=O)[O-])[N+](=O)[O-])[N+](=O)[O-]
inactive: [1] 14.2% | [2] -4.15% | [3] 7.85% | [4] 6.75% | [5] 10.1% | [6] 20.4%

CN(N)P(=O)(Cl)C(Cl)(Cl)Cl (configuration not stated)
inactive: [1] 6.7% | [2] -0.7% | [3] 4.3% | [4] -3.1% | [5] 3.35% | [6] 11.3%

CCC(CO)NC(C)C.O=[N+]([O-])c1cc([N+](=O)[O-])c(O)c([N+](=O)[O-])c1
inactive: [1] -5.95% | [2] -4.05% | [3] -0.85% | [4] -25.5% | [5] -10.3% | [6] -3.7%

CCCCC(CCCC)NCC(C)O.O=[N+]([O-])c1cc([N+](=O)[O-])c(O)c([N+](=O)[O-])c1
inactive: [1] 42.5% | [2] 16.9% | [3] 37.2% | [4] -2.05% | [5] 4.45% | [6] 36%
